IC50 data for 1 compound are collected here from ChEMBL document CHEMBL3865790, “2-(Phenylsulfonyl)quinoline N-hydroxyacrylamides as potent anticancer agents inhibiting histone deacetylase” (Eur J Med Chem, 2016).

Each structure is given as a SMILES string. Where only a bound is given, the exact number is not on record here.

For the assay, the target named is T1, Histone deacetylase 8 (Homo sapiens, UniProt Q9BY41).
T1 sequence (Q9BY41 whole entry): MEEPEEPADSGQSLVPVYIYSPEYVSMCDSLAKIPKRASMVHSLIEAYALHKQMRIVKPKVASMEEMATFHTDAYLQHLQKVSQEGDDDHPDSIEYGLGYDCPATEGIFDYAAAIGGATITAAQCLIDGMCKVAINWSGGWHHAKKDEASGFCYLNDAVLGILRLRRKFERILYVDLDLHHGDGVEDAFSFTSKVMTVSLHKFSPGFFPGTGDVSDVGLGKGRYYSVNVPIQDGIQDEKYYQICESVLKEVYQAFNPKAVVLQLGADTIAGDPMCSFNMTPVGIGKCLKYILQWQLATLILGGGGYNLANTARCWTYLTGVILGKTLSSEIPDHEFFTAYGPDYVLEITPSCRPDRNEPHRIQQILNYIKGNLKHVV
Nature of the assay: Inhibition of His-tagged full length recombinant human HDAC8 expressed in baculovirus expression system assessed as release of 7-amino-4-methylcoumarin by fluorogenic assay.

By IC50 is commonly meant the point on the concentration scale where inhibition reaches its midpoint. Turning to `O=C(CCCCCCC(=O)Nc1ccccc1)NO` [VORINOSTAT], the IC50 was above 300 nM.
